For data set [1] the following is noted: 5% DMSO : 95% cell medium, >24 h.
Data set [2] has as its system MDA-MB-231 human breast carcinoma cells. The experiment in a line: MTT cell viability assay, MDA-MB-231. The note with it: 72 h incubation; micromolar range. The procedure:
(§1) The cultures of human breast (MDA-MB-231; ATCC) and ovarian (A2780, ATCC) carcinoma cell lines, were carried out in DMEM (Gibco) medium containing GlutaMax I (MDA-MB-231) or RPMI (A2780) and were completed with 10% FBS and 1% penicillin-streptomycin and kept at 37° C. in a humidified atmosphere containing 5% de CO2.
(§2) The cell culture was made in flasks containing the medium appropriate to cell proliferation and allowing cell adhesion.
(§3) Upon reaching the required confluence, the cells were harvested through addition of a 0.05% trypsin-EDTA solution (Gibco®). […] For this, the cells were seeded in 200 μl of complete cell medium in 96-well plates. Cell density was 2×10^4 viable cells (MDA-MB-231 and A2780) per well.
Cells were left to adhere for 24 h, followed by the addition of various dilutions in medium (200 μl) of the test compound. The test compound was first solubilized in DMSO and then in the cell medium and added to the cells at concentrations 1-100 μM. The final DMSO concentrations in the medium were lower than 0.5%. After 24 h and 72 h incubation, 37° C./5% CO2, the medium was substituted by 200 μl of the MTT solution (0.5 mg/ml in phosphate buffer—PBS). […] Cell viability was assessed measuring the absorbance at 570 nm, using a plate spectrophotometer. […]

The test system of data set [3] is A2780 ovarian carcinoma cells. The experiment in a line: MTT cell viability assay, A2780. The note with it: for cytotoxic activity against A2780 (dose-response curves): 72 h incubation, micromolar range; for cytotoxic activity against A2780: 48 h of incubation. Here is the method:
as §1, §2, §3
(§4) Cells were left to adhere for 24 h, followed by the addition of various dilutions in medium (200 μl) of the test compound. The test compound was first solubilized in DMSO and then in the cell medium and added to the cells at concentrations 1-100 μM. The final DMSO concentrations in the medium were lower than 0.5%. After 24 h and 72 h incubation, 37° C./5% CO2, the medium was substituted by 200 μl of the MTT solution (0.5 mg/ml in phosphate buffer—PBS). After 3-4 h incubation, the MTT solution was removed and the formazan crystals formed by the viable cells were dissolved in DMSO (200 μl). Cell viability was assessed measuring the absorbance at 570 nm, using a plate spectrophotometer.
The cytotoxicity of the test compound was quantified calculating the drug concentration that inhibits the growth of 50% of cells (IC50) (GraphPad Prism software). The assessment was carried out with at least two independent experiments, each comprising six replicates per concentration. Dose-response curves of cell viability, after a 72 h incubation, are represented in the graphs of the FIGS. 4a and 4b.
(§5) Upon reaching the required confluence, the cells were harvested through addition of a 0.05% trypsin-EDTA solution (Gibco®). […] For this, the cells were seeded in 200 μl of complete cell medium in 96-well plates. […] Cells were left to adhere for 24 h, followed by the addition of various dilutions in medium (200 μl) of the test compound. The test compound was first solubilized in DMSO and then in the cell medium and added to the cells at concentrations 1-100 μM. The final DMSO concentrations in the medium were lower than 0.5%.
For orientation: Tetrazolium dyes change colour on reduction, which living cells bring about.

Data set [4] relates to MCF-7 breast adenocarcinoma cells. The experiment in a line: MTT cell viability assay, MCF-7. The note with it: for cytotoxic activity against MCF-7 (dose-response curves): 24 h and 72 h incubation, 1-100 μM, micromolar range; for cytotoxic activity against MCF-7: 48 h of incubation. Here is the method: as §2
For this, the cells were seeded in 200 μl of complete cell medium in 96-well plates.
as §4, with “[…] The cytotoxicity of the test compound” for “Cell viability”, “quantified calculating” for “assessed measuring”, “drug concentration that inhibits the growth of 50% of cells (IC50) (GraphPad Prism software). The assessment was carried out with” for “absorbance”, “least two independent experiments, each comprising six replicates per concentration.” for “570 nm, using a plate spectrophotometer.”
as §5

In another data set the test system is glioma U87 cells. The note with it: 48 h of incubation.
For the next data set, the system named is melanoma A345 cells. The note with it: 48 h of incubation.

Here are results for 6 substances from patent US11168179B2, “Macromolecular transition metal complexes for treatment of cancer and process for their preparation” (FACULDADE DE CIÉNCIAS DA UNIVERSIDADE DE LISBOA, priority 2014, dated 2021).

As for “(2,2′-bipyridine-4,4′-diylbis{methylene}bis(2-{2-(2-hydroxypropanoyloxy)poly(lactic acid)-yl}propanoate)-k^2N,N′)(carbonyl)η^5-cyclopentadienyl)ruthenium(II) hexafluorophosphate [Compound 1]”, in data set [1], the “chemical stability in aqueous medium: relative variation (%) of the absorbance at fixed wavelength over time” value is listed as “appropriate chemical stability”.

With “(2,2′-bipyridine-4,4′-diylbis{methylene}bis(2-{2-(2-hydroxypropanoyloxy)poly(lactic acid)-yl}propanoate)-k^2N,N′)(triphenylphosphane)(η^5-cyclopentadienyl)ruthenium(II) triflate [Compound 5]”, the “cytotoxic activity against MDA-MB-231 (dose-response curves)” value in data set [2] is reported as “cytotoxic”. The “cytotoxic activity against A2780 (dose-response curves)” value in data set [3] is “cytotoxic”. In addition, in data set [1], the “chemical stability in aqueous medium: relative variation (%) of the absorbance at fixed wavelength over time” value is reported as “appropriate chemical stability”. Besides, in data set [4], the “cytotoxic activity against MCF-7 (dose-response curves)” value is on record as “cytotoxic”.

In the case of “[1,1′-{1,1′-(1,1′-{2,2′-bipyridine-4,4′-diylbis(methylene)}bis(oxy)bis(1-oxopropane-2,1-diyl))bis(poly(lactic acid)-yl))}bis(oxy)bis(1-oxopropane-2,1-diyl)dianthracene-9-carboxylate)-k^2N,N′](triphenylphosphane)(η^5-cyclopentadienyl)ruthenium(II))triflate [Compound 3]”, the “cytotoxic activity against A2780” value in data set [3] is “most active”. In addition, the “chemical stability in aqueous medium: relative variation (%) of the absorbance at fixed wavelength over time” value in data set [1] was “appropriate chemical stability”. The “cytotoxic activity against MCF-7” value in data set [4] is reported as “most active”. Further, the “cytotoxic activity against U87 glioma” value with glioma U87 cells was “most active”. In addition, the “cytotoxic activity against A345 melanoma” value with melanoma A345 cells is reported as “most active”.

On to “[(1,1′-{1,1′-(1,1′-{2,2′-Bipyridine-4,4′-diylbis(methylene)}bis(oxy)bis(1-oxopropane-2,1-diyl))bis(poly(lactic acid)-yl))}bis(oxy)bis(1-oxopropane-2,1-diyl)di(2S,3S,4S,5R,6R)-3,4,5,6-tetrahydroxyoxane-2-carboxylate)-k^2N,N′](triphenylphosphane)(η^5-cyclopentadienyl)-ruthenium(II) triflate [Compound 6]”, for which the “cytotoxic activity against MDA-MB-231 (dose-response curves)” value in data set [2] is reported as “cytotoxic”. For the same substance, the “cytotoxic activity against A2780 (dose-response curves)” value in data set [3] is given as “cytotoxic”. Moreover, the “chemical stability in aqueous medium: relative variation (%) of the absorbance at fixed wavelength over time” value in data set [1] is reported as “appropriate chemical stability”. The “cytotoxic activity against MCF-7 (dose-response curves)” value in data set [4] was “cytotoxic”.

Turning to “[(1,1′-{1,1′-(1,1′-{2,2′-bipyridine-4,4′-diylbis(methylene)}bis(oxy)bis(1-oxopropane-2,1-diyl))bis(poly(lactic acid)-yl))}bis(oxy)bis(1-oxopropane-2,1-diyl)dianthracene-9-carboxylate)-k^2N,N′](carbonyl)(η^5-cyclopentadienyl)ruthenium(II) hexafluorophosphate [Compound 2]”, in data set [1], the “chemical stability in aqueous medium: relative variation (%) of the absorbance at fixed wavelength over time” value was “appropriate chemical stability”.

Regarding “[(1,1′-{1,1′-(1,1′-{2,2′-bipyridine-4,4′-diylbis(methylene)}bis(oxy)bis(1-oxopropane-2,1-diyl))bis(poly(lactic acid)-yl))}bis(oxy)bis(1-oxopropane-2,1-diyl)dinaphthalene-2-carboxylate)-k^2N,N′](triphenylphosphane)(η^5-cyclopentadienyl)ruthenium(II) triflate [Compound 4]”, in data set [3], the “cytotoxic activity against A2780” value is on record as “most active”. Also, the “chemical stability in aqueous medium: relative variation (%) of the absorbance at fixed wavelength over time” value in data set [1] is “appropriate chemical stability”. In addition, in data set [4], the “cytotoxic activity against MCF-7” value is reported as “most active”. Further, the “cytotoxic activity against U87 glioma” value in the data set with glioma U87 cells is “most active”. In addition, in the data set on melanoma A345 cells, the “cytotoxic activity against A345 melanoma” value is recorded as “most active”.
